The target in one data set is T1, H2 -receptors (Rattus norvegicus, UniProt P25102).
T1 construct: from tissue; host or cells: uterine horn of estrone-treated female albino rats
The data set is described as follows: H2-receptor blocking activity, isolated rat uterine horn (histamine relaxation of KCl-contracted uterus). Here is the method: The following assay for H2 -receptor blocking activity was employed. Female albino rats were treated with estrone 24 hours prior to the initiation of the experiment. The rats were sacrificed and the uterine horns removed therefrom and suspended at ambient temperatures in isolated organ baths containing De Jalon's solution. After equilibration, the uterine strips are exposed to 50 millimole aqueous potassium chloride, which produces a sustained contraction. When the uterus is so contracted, histamine produces a dose-dependent H2 -receptor-mediated relaxation. A control dose-response curve to histamine is constructed on each tissue. Following thorough washout of the histamine after obtaining the control dose-response curve, each antagonist (the compounds of this invention) is added for 30 minutes at a concentration of 10^-5 molar. The uterine strips are then contracted with aqueous potassium chloride in the presence of the antagonist and a second dose-response curve to histamine obtained. […] The dose ratio (DR) is calculated for each concentration of antagonist by dividing the ED50 of histamine in the presence of the competitive antagonist by the control ED50 for histamine. The dissociation constant (KB) of the antagonist is calculated from the dose-ratios by the following equation: […]

By UniProt entry, the sequences of proteins in these tests, tags left out.
UniProt P25102, whole entry: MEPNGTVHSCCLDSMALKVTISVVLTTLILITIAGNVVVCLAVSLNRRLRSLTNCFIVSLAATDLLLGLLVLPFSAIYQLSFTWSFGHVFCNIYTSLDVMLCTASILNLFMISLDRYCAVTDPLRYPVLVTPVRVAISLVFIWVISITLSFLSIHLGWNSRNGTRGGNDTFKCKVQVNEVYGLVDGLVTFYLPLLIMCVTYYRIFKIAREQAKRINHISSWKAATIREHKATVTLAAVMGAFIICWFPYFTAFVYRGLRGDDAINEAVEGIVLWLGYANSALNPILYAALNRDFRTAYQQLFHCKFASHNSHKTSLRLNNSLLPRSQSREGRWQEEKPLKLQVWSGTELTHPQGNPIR

Another data set has as its system acid secretion. The following applies: dog.
Data set [1] is described as follows: in vivo. The following applies: mouse.
A short description of data set [2]: in vivo. To be noted: rat.

Experimental findings from patent publication US4382090A, “N-Thiazolylmethylthioalkyl-N'alkylamidines and related compounds” (Eli Lilly and Company, priority 1981, dated 1983) are described below.

Structures are written as SMILES. A value given as a limit tells only on which side of the number the result lay.

Take `CNC(=C[N+](=O)[O-])NCCSCc1csc(CN(C)C)n1` [N-methyl-N'-2-(2-dimethylaminomethyl-4-thiazolylmethylthio)ethyl 2-nitro-1,1-ethenediamine]: the “affinity for the H2 -receptors relative to cimetidine” value on H2 -receptors (rat uterine strips, antagonist 10^-5 molar for 30 minutes) was “approximately 11 times”. For the same compound, the “relative affinity versus cimetidine using a Schild plot” value at H2 -receptors (ratio of KB values, rat uterus) lay within 10 to 1. Further, the “antisecretory activity relative to cimetidine, intravenous route” value with acid secretion (iv infusion over 30 minutes) was “about 6.5 times”. For the same compound, the “antisecretory activity relative to cimetidine, orally” value with acid secretion (oral 75 min. prior to collection of gastric secretion) is “about 11.0 times”. Besides, the median lethal dose (LD50) (in general, the dose at which mortality reaches 50%) in the data set “in vivo [1]” (iv) was 265 mg/kg; in the data set “in vivo [1]” (po), 1680 mg/kg; in the data set “in vivo [2]” (iv), over 300 mg/kg; in “in vivo [2]” (po) it was 1680 mg/kg.
